The structures appear in SMILES notation. This is one part of the list.

This is an account of results in published antibiotic growth screens (doi:10.1038/s41589-023-01349-8).

The test relates to A. baumannii ATCC 17978. In words: relative growth (fraction of control); higher = less inhibition. The note with it: 50 µM.
In the case of `C[C@@H]1CN([C@@H](C)CO)S(=O)(=O)c2ccc(C#CCN(C)C)cc2O[C@@H]1CN(C)C(=O)C1CCCCC1`, the relative growth was 0.923.
For `CS(=O)(=O)N(CCC#N)Cc1ccco1` the value was 0.998; for `NC[C@H]1O[C@H](O[C@H]2[C@H](O)[C@@H](O[C@H]3O[C@H](CO)[C@@H](O)[C@H](N)[C@H]3O)[C@H](N)C[C@@H]2N)[C@H](N)[C@@H](O)[C@@H]1O.O=S(=O)(O)O`, 0.153; for `COc1ccc2c3c1O[C@H]1C[C@@H](O)C=C[C@@]31CCN(C)C2`, 1.03.
`COc1ccccc1C#Cc1ccc2c(c1)O[C@@H](CN(C)C(C)=O)[C@H](C)CN([C@@H](C)CO)S2(=O)=O` displayed a relative growth of 0.823.
The result for `COCCOC(=O)N1C(=O)[C@@]2(c3cc(C#CC4=CCCCC4)ccc31)[C@H](c1ccc(O)cc1)N1[C@H](c3ccccc3)[C@H](c3ccccc3)OC(=O)[C@H]1[C@@H]2C(=O)N1CCN(c2ncccn2)CC1` reads 0.966; that for `O=C(C[C@H]1CC[C@H]2[C@@H](COC[C@@H](O)CN2S(=O)(=O)c2ccc(Cl)cc2)O1)N[C@H]1CCN(Cc2ccccc2)C1`, 0.937; that for `O=C(C[C@@H]1CC=CCCC(=O)OC[C@@H](Cc2c[nH]c3ccccc23)NC1=O)N[C@H](CO)Cc1ccccc1`, 0.905.
As to `O=C(C[C@@H]1CC[C@H]2[C@@H](COC[C@@H](O)CN2Cc2cccc(C(F)(F)F)c2)O1)NCCc1ccncc1`, the relative growth came to 0.887.
The result for `CN(C)c1nc(NCCO)c2cnn(C)c2n1` reads 0.966; that for `COc1ccc(S(=O)(=O)N[C@@H]2CC[C@H](CCNC(=O)CN3CCOCC3)O[C@H]2CO)cc1`, 1.09.
The result for `C/C=C/C(=O)c1cc(Cl)ccc1O` reads 0.941; that for `CCOC(=O)C1=NNC[C@@H]1C(=O)OCC`, 1.07; that for `Cc1nc(N)c(C(=O)O)nc1C`, 0.901.
Turning to `COCC(=O)Nc1ccc2c(c1)OC[C@H](C)N(C(=O)Cc1cccnc1)C[C@@H](C)[C@@H](OC)CN(C)C2=O`, the relative growth came out at 1.07.
Consider `COc1cc2c(cc1OC)[C@@H]1C(=O)c3ccc4c(c3O[C@@H]1CO2)C=CC(C)(C)O4`, for which the relative growth came to 1.48.
The result for `S=c1[nH]cnc2nc[nH]c12` reads 1.06; that for `CN(C)CCCCCCNC(=O)[C@@H]1C[C@@H]2C(=O)N[C@@H](CCCC[N+](C)(C)C)C(=O)N2[C@@H]1c1cccc(OCCO)c1`, 0.985; that for `CC(=O)n1cc([C@@H]2C=C(C(=O)N3CCN(C)CC3)O[C@H](OCc3ccc(CO)cc3)C2)c2ccccc21`, 0.877.
For `CCCCCCCCNC(C)C(O)c1ccc(SC(C)C)cc1` (configuration not stated) the value was 0.364; for `CNCC[C@@H](Oc1ccccc1C)c1ccccc1.Cl`, 1.11; for `CCNC(=O)C[C@H]1C=C[C@H](NC(=O)C2CC2)[C@H](CO)O1`, 0.982.
In turn, `CN1C(=O)[C@@H]2[C@@H](C(=O)c3ccccn3)[C@@H]2C1=O` came in with a relative growth of 0.86.
In turn, `O=C(C[C@@H]1C=C[C@H](NC(=O)CN2CCOCC2)[C@@H](CO)O1)NCCc1ccncc1` yielded a relative growth of 1.
In turn, `CC1(C)O[C@@H]2CC3C4C[C@H](F)C5=CC(=O)C=C[C@]5(C)[C@@]4(F)[C@@H](O)C[C@]3(C)[C@]2(C(=O)CO)O1` (some centres not stated) registered a relative growth of 1.15.
Consider `CO[C@H]1CN(C)C(=O)c2cc(NC(=O)c3ccc(F)cc3)ccc2OC[C@H](C)N(C(=O)CN(C)C)C[C@H]1C`, for which the relative growth was found to be 1.02.
For `O=C1Nc2ccccc2Oc2cc(Sc3ccccc3)ccc21` the value was 1.15; for `CN(C)CCCNC(=O)C[C@@H]1C=C[C@H](NS(=O)(=O)c2ccccc2)[C@@H](CO)O1`, 1.01; for `Cn1cnc(S(=O)(=O)N2C[C@@H](O)COC[C@@H]3O[C@@H](CC(=O)NCc4ccc(F)cc4)CC[C@H]32)c1`, 1.28.
`COc1ccc(C#Cc2ccc3c(c2)[C@@]2(C(=O)N3C(=O)N[C@@H](C)c3ccccc3)[C@H](c3ccc(OCCO)cc3)N3[C@H](c4ccccc4)[C@H](c4ccccc4)OC(=O)[C@H]3[C@@H]2C(=O)O)cc1` yielded a relative growth of 1.35.
`N=C(N)NCCCCNC(=N)N.O=S(=O)(O)O`: the relative growth came to 0.948.
Regarding `CC(C)[C@@H]1CC[C@@H](C)CC1=O`, the relative growth was determined as 1.01.
The result for `CC(=O)c1cc2ccccc2s1` reads 0.941.
For `Nc1nc(C(F)(F)F)ncc1C(=O)O` the value was 1.08; for `O=C(C[C@H]1C[C@H]2c3cc(NS(=O)(=O)c4ccc(F)cc4)ccc3O[C@H]2[C@H](CO)O1)NC1CCCC1`, 0.956; for `O=C(NO)c1ccc(C(=O)N/N=C/[C@H](O)[C@@H](O)[C@H](O[C@@H]2O[C@H](CO)[C@H](O)[C@H](O)[C@H]2O)[C@H](O)CO)cc1`, 1.1.
Consider `COC(=O)c1c(C)c2c(c(C)c1O)OC(=O)c1c(C)c(Cl)c(O)c(Cl)c1O2`, for which the relative growth worked out at 0.903.
For `Cc1ccc(S(=O)(=O)N[C@H]2CC[C@H](CCNC(=O)CN3CCOCC3)O[C@H]2CO)cc1` the value was 1.14; for `C[C@@H]1CN([C@H](C)CO)S(=O)(=O)c2ccc(C3=CCCC3)cc2O[C@@H]1CN(C)C(=O)Cc1ccncc1`, 0.972; for `Cc1ccc(C)c(OCCCC(C)(C)C(=O)O)c1`, 0.999.
The result for `O=C(C[C@H]1C=C[C@@H](NC(=O)C2CC2)[C@H](CO)O1)NCCCN1CCOCC1` reads 0.984; that for `O=C(CS)NCCCCCCNC(=O)[C@@H]1C[C@@H]2C(=O)NCC(=O)N2[C@@H]1c1cccc(OCCO)c1`, 0.987.
With `COc1c(-c2ccccc2)oc2c(ccc3ccoc32)c1=O`, the relative growth is 1.12.
In turn, `COc1ccccc1-c1ccc2c(c1)O[C@@H](CN(C)C(=O)c1cccnc1)[C@@H](C)CN([C@H](C)CO)S2(=O)=O` yielded a relative growth of 0.999.
For `CCNC(=O)C[C@H]1CC[C@H](NC(=O)C2CC2)[C@@H](CO)O1` the value was 0.97; for `Cc1nc2c(cc1C(=O)NN)c(=O)n(C)c(=O)n2C`, 0.954.
`C[C@@H]1ON(c2ccc(C(=O)OC(C)(C)C)cc2)[C@H](c2ccc(O)cc2)[C@H]1C(=O)N1C(=O)OC[C@H]1Cc1ccccc1`: the relative growth was found to be 0.935.
The result for `C[C@H]1CN([C@@H](C)CO)S(=O)(=O)c2ccc(C#CCN(C)C)cc2O[C@H]1CN(C)C(=O)c1ccccc1F` reads 1.13.
Compound `O=C(CCCN1CCC(O)(c2ccc(Cl)cc2)CC1)c1ccc(F)cc1` had a relative growth of 0.725.
As to `CC(C)NC(=O)c1cccc2cccc(Sc3ccccc3)c12`, the relative growth was 1.13.
For `CC1(C)C=C(C(=O)N2CCOCC2)C(C)(C)N1` the value was 0.984.
For `C=CCOC(=O)[C@@H]1[C@H]2C(=O)O[C@H](c3ccccc3)[C@H](c3ccccc3)N2[C@H](c2ccc(OCCOC(=O)[C@H]3C[C@H]4C(=O)N[C@@H](CC(C)C)C(=O)N4[C@H]3c3cccc(OCCO)c3)cc2)[C@@]12C(=O)Nc1ccc(I)cc12`, the relative growth turned out to be 1.12.
